## scFv variants of Ab-14 (heavy chain) against a SARS-CoV-2 spike peptide

Binding partner: SARS-CoV-2 spike HR2 peptide, sequence PDVDLGDISGINAS.

The variants keep the light chain, the linker and the frameworks of Ab-14 (scFv order VH, three GGGGS repeats, VL).
VH: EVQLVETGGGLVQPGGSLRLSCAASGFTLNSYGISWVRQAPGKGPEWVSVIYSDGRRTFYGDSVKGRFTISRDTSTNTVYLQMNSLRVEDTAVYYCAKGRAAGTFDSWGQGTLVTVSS
VL: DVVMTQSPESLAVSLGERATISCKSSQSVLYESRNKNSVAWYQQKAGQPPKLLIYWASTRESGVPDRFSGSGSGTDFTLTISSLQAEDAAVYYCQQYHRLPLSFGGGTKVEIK

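The parent was found by panning a naive human phage display library on the peptide. These sequences belong to a second round, designed from the earlier measurements on random variants of the parent. Their group label is 14H_GPLM_HC (GPLM: also part of the Gaussian process libraries; HC: hill climbing; a sequence that several methods proposed may carry one label only). AlphaSeq pools MATa yeast showing the antibodies with MATalpha yeast showing the peptide. Binding brings cells together so that they mate, and sequencing counts the barcode pairs among the diploids. A regression on co-assayed BCL2-family reference pairs converts the normalised counts of each replicate to an apparent Kd. Each pool was mated in six replicate cultures.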

The parent's heavy chain CDRs are GFTLNSYGIS, VIYSDGRRTFYGDSVK, GRAAGTFDS; each variant's own CDRs replace them letter for letter.
Scale: log10 of Kd in nM, estimated from mating counts; low values are strong binders.
Replicates are averaged; those with no signal do not enter the mean.
"nd" marks a missing value. The strain was present, yet no cells mated with the target were sequenced in that replicate, which points to weak or no binding.
In the paper, a design with two or fewer of six values counts as a poor binder.
Three control strains display no target. For all heavy chain designs, 1% of the pairings with them gave a signal, with a median of 2.08 and one signal in twenty below 0.84, so weak values seen in few replicates may be background. Also given: how often the same scFv was detected with the empty control strains, with their mean in brackets.
Of ten entries with the parent sequence, four were seen in most replicates (averages 0.34 to 2.37), three in one and three in none, so single entries are noisy.
A sequence measured in both rounds can read differently, since the two assays cover different ranges.

CDR-H1,CDR-H2,CDR-H3,"log10 Kd, replicates","mean, log10 nM",signal with controls
GFTLNEYGIS,VIYSDGRRTFYTDSVK,GRFAGTFDN,2.19 / 0.98 / -0.22 / 0.05 / 0.52 / 0.60,0.69,0/18
GFTLNDYGIS,VIYSDGRRTFYGDSVK,GRAAGTFVQ,nd / nd / nd / nd / nd / nd,nd,0/18
GFELNSYGIS,VIYSDGRRTFYSDSVK,GMAAGTFDS,nd / -0.08 / nd / nd / nd / nd,-0.08,0/18
GFTLNSYGIS,VIYSDGRRTFYSDSVK,GQLAGSFDS,nd / nd / 1.29 / nd / nd / nd,1.29,0/18
GFGLNDYGIS,VIYSDGRRTFYIDSVK,GNAAGTFDS,nd / nd / nd / nd / nd / nd,nd,0/18
GFTLNSYGIS,VIYADGRRTFYGDSVK,GQAAGTFKL,nd / 2.32 / nd / 1.60 / nd / 1.65,1.86,0/18
GFTLNEYGIS,VIYSDGRRTFYGDSVK,GRAAGTFEL,0.97 / 0.75 / 1.13 / 1.26 / 1.08 / 0.67,0.98,1/18 (3.18)
GFTLNSYGIS,VIYSDGRRTFYSDSVK,GSAAGTFDK,1.22 / 0.37 / 0.90 / 0.02 / 0.19 / 0.38,0.52,0/18
GFWLNDYGIS,VIYSDGRRTFYIDSVK,GQAAGTFDS,1.81 / nd / 1.29 / 1.31 / 1.15 / 0.94,1.30,0/18
GFDLNSYGIS,VIYSDGRKTFYGDSVK,GRTAGTFDS,0.86 / 0.42 / 0.05 / 0.18 / -0.02 / 0.41,0.32,0/18
GFVLNQYGIS,VIYSDGRRTFYADSVK,GRAAGTFDS,nd / 0.24 / 0.10 / nd / 0.34 / 0.33,0.25,0/18
GFTLNDYGIS,VIYSDGRRTFYHDSVK,GRVAGTFDS,-0.11 / 0.10 / 0.19 / 0.16 / 0.27 / 0.34,0.16,1/18 (2.86)
GFTLNNYGIS,VIYSDGQRTFYSDSVK,GRAAGTFDS,0.17 / 0.63 / -0.45 / -0.10 / -0.66 / 0.00,-0.07,0/18
GFTLNSYGIS,VIYSDGRRTFYSDSVK,GQAGGTFDL,1.24 / 1.19 / 0.55 / 0.21 / 1.07 / 2.00,1.04,1/18 (2.72)
GFTLNDYGIS,VIYSDGRRTFYGDSVK,GRTAGTFFS,nd / nd / nd / nd / nd / nd,nd,0/18
GFTLNEYGIS,VIYSDGRRTFYTDRVK,GRFAGTFDS,nd / 0.88 / 1.00 / nd / 0.19 / nd,0.69,0/18
GFYLNSYGIS,VIYSDGRRTFYDDSVK,GQAAGTFDS,nd / nd / nd / nd / nd / 1.80,1.80,0/18
GFVLNDYGIS,VIYSDGRRTFYGDSVK,GRHAGTFDS,nd / nd / 1.59 / 2.34 / 1.74 / 2.54,2.05,1/18 (2.29)
GFQLNSYGIS,VIYSDGRRTFYSDSVK,GAAAGTFDS,0.04 / 0.78 / 0.54 / -0.02 / 0.21 / -0.37,0.20,0/18
GFNLNQYGIS,VIYSDGRRTFYADSVK,GRAAGTFDS,0.44 / 0.25 / 0.34 / 0.24 / 0.15 / 0.50,0.32,0/18
GFTLNEYGIS,VIYSDGSRTFYTDSVK,GRTAGTFDS,0.73 / 0.64 / 0.83 / 0.13 / 0.43 / 0.47,0.54,0/18
GFTLNEYGIS,VIYSDGRRTFYMDSVK,GRTAGTFDS,0.20 / 0.42 / 0.76 / 0.57 / 0.75 / 0.38,0.51,0/18
GFTLNEYGIS,VIYSDGRRTYYGDSVK,GRAAGTFDS,0.10 / 0.97 / 0.59 / 0.59 / 0.38 / 0.33,0.49,1/18 (1.69)
GFTLNSYGIS,VIYSDGRRTFYSDSVK,GRAAGFFDS,nd / nd / nd / nd / nd / nd,nd,0/18
GFDLNSYGIS,VIYSDGRRTFYGDSVK,GREAGIFNS,nd / nd / nd / nd / nd / nd,nd,0/18
GFWLNDYGIS,VIYSDGRRTQYIDSVK,GRAAGTFDS,nd / nd / nd / nd / 0.80 / nd,0.80,0/18
GFTLNDYGIS,VIYSDGRRTFYGDSVK,GRCAGTFES,nd / nd / nd / nd / nd / nd,nd,0/18
GFTLNEYGIS,VIYSDGWRTFYGDSVK,GRAAVTFDQ,nd / nd / nd / nd / nd / nd,nd,0/18
GFSLNEYGIS,VIYSDGRRTFYGDSVK,GRAAGTFIS,nd / nd / nd / nd / nd / nd,nd,0/18
GFTLNSYGIS,VIYSDGHRTFYSDSVK,GQLAGTFDS,0.41 / 0.86 / 0.99 / 0.64 / 0.52 / 0.76,0.70,0/18
GFSLNDYGIS,VIYSDGRRTFYGDSVK,GRAALTFDA,nd / nd / nd / nd / nd / 2.05,2.05,0/18
GFDLNSYGIS,VIYSDGRRTFYGDSVK,GRTAGRFDS,nd / nd / nd / nd / nd / nd,nd,0/18
GFTLNSYGIS,VIYSDGRRTFYSDSVK,GMVGGTFDS,0.57 / -0.02 / 0.39 / 0.03 / 0.25 / 0.44,0.28,0/18
KFTLNEYGIS,VIYSDGRRTFYTDSVK,GRFAGTFDS,2.43 / nd / 2.28 / 3.70 / nd / 2.64,2.76,0/18
GFALNEYGIS,VIYSDGRRTFYTDSVK,GRFAGTFDS,0.30 / 0.90 / 0.49 / 1.10 / 1.23 / 0.07,0.68,0/18
GFTLNEYGIS,VIYSDGRRTFYMDSVK,GREAGTFDS,0.53 / 0.52 / 0.18 / 0.16 / 0.16 / 0.33,0.31,0/18
GFDLNSYGIS,VIYSDGRRTFYGDSVK,GRAAGLFNS,nd / nd / nd / nd / nd / nd,nd,1/18 (2.12)
GFTLNDYGIS,VIYSDGRRTFYTDSVK,GKAAGTFIS,nd / nd / nd / nd / nd / nd,nd,0/18
GFSLNEYGIS,VIYSDGRRTFYSDSVK,GRAAGIFDS,0.25 / 0.17 / 0.08 / -0.13 / -0.24 / 0.25,0.06,0/18
GFTLNSYGIS,VIYSDGRRTFYSDSVK,GMAAGTFDS,0.63 / 0.65 / 0.25 / 0.79 / 0.52 / 0.67,0.58,1/18 (1.89)
GFTLNEYGIS,VIYSDGRRTFYGDSVK,GREAGTFDK,0.11 / -0.15 / -0.12 / -0.18 / 0.04 / -0.07,-0.06,0/18
GFTLNSYGIS,VIYSDGRRTFYSDSVK,GMAGGTFDL,1.08 / 1.63 / 1.43 / 0.67 / 0.99 / 1.11,1.15,0/18
GFSLNQYGIS,VIYSDGRRTFYSDSVK,GRQAGTFDS,-0.29 / -0.65 / 0.18 / -0.20 / 0.15 / 0.22,-0.10,0/18
GFTLNEYGIS,VIYSDGRRTFYGDSVK,GRAAVTFCQ,nd / nd / nd / nd / nd / nd,nd,0/18
GFTLNEYGIS,VIYSDGRRTFYMDSVK,GRLAGTFDS,0.85 / 1.40 / 0.84 / 1.06 / 0.90 / 1.30,1.06,0/18
GFSLNDYGIS,VIYSDGRRTFYTDSVK,GRAAGTFIS,nd / nd / nd / 1.86 / 1.31 / nd,1.58,2/18 (2.35)
GFTLNLYGIS,VIYSDGRRTFYDDSVK,GQTAGTFDS,nd / nd / nd / nd / 0.83 / nd,0.83,0/18
GFDLNSYGIS,VIYSDGRRTFYGDSVK,GRAAGHFWS,nd / nd / nd / nd / nd / nd,nd,0/18

Repeated from above, the 8 best binders with a signal in all replicates:

CDR-H1,CDR-H2,CDR-H3,"log10 Kd, replicates","mean, log10 nM",signal with controls
GFSLNQYGIS,VIYSDGRRTFYSDSVK,GRQAGTFDS,-0.29 / -0.65 / 0.18 / -0.20 / 0.15 / 0.22,-0.10,0/18
GFTLNNYGIS,VIYSDGQRTFYSDSVK,GRAAGTFDS,0.17 / 0.63 / -0.45 / -0.10 / -0.66 / 0.00,-0.07,0/18
GFTLNEYGIS,VIYSDGRRTFYGDSVK,GREAGTFDK,0.11 / -0.15 / -0.12 / -0.18 / 0.04 / -0.07,-0.06,0/18
GFSLNEYGIS,VIYSDGRRTFYSDSVK,GRAAGIFDS,0.25 / 0.17 / 0.08 / -0.13 / -0.24 / 0.25,0.06,0/18
GFTLNDYGIS,VIYSDGRRTFYHDSVK,GRVAGTFDS,-0.11 / 0.10 / 0.19 / 0.16 / 0.27 / 0.34,0.16,1/18 (2.86)
GFQLNSYGIS,VIYSDGRRTFYSDSVK,GAAAGTFDS,0.04 / 0.78 / 0.54 / -0.02 / 0.21 / -0.37,0.20,0/18
GFTLNSYGIS,VIYSDGRRTFYSDSVK,GMVGGTFDS,0.57 / -0.02 / 0.39 / 0.03 / 0.25 / 0.44,0.28,0/18
GFTLNEYGIS,VIYSDGRRTFYMDSVK,GREAGTFDS,0.53 / 0.52 / 0.18 / 0.16 / 0.16 / 0.33,0.31,0/18

The measurements come from Li et al. 2023 (doi:10.1038/s41467-023-39022-2) through the FLAb antibody collection.